High-throughput results (PubChem BioAssay)
Nrf2 activator – activates Nrf2 signaling. AREc32 ARE-luciferase reporter (MCF7-derived line), luminescence, 24 h. Potency, µM (doses to about 46.1 µM), for the others: at the highest dose activation, actives largely listed as activators. actives 0.31% (n = 410,000). AID 624171; further: potency means the concentration at half of the fitted maximal effect; % of control where 0% means no effect; nearly all actives have a fitted effect of over 65% in size
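ARE-driven firefly luciferase activity in AREc32 cells measured after a 24 hr compound exposure at 37 deg C, using Steady-Glo reagent and a 30 min room-temperature hold.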
miR-21 FLuc – miR-21 reporter, rising signal | AID 2288 | HeLa miR-21 FLuc reporter, luciferase, 48 h | 340,000 tested, under 10 active | Potency, µM (titrated, usually from 38.3 µM), for the others: at the top dose reporter change, positive = more light; active = well fitted rising curve with a large enough effect; inconclusive = small, poorly fitted or top-dose-only effect; inactive = no such curve, though single readings can be large or run the other way;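 also: % of control where 0% means no effect; miR-21 action dims this reporter so a rising signal means less miR-21 action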
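HeLa cells endogenously expressing miR-21, stably carrying CMV-driven firefly luciferase with a downstream miR-21 binding site, 2000 cells/well. Titrations up to approximately 40 uM, 48 hours; luciferase luminescence read.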
Nrf2 block – blocks Nrf2 signaling; A549 ARE-Fluc reporter, luciferase luminescence, 18-24 h; Potency, µM (series often up to 46 µM), for inactives: at the top dose activity change, negative = inhibition, usual class: inhibitors; actives 2.1% (n = 360,000); AID 504444; further: potency means the concentration at half of the fitted maximal effect; on the % scale 0 is the no-effect control and ±100 the full control effect; nearly all actives have a fitted effect of over 60% in size
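A549 ARE_Fluc cells (5000/well, 5% FBS OPTI-MEM) pre-incubated 2 h, then treated with compounds 18-24 h at 37C/5% CO2 in concentration-response. CellTiter-Fluor viability read first; BugLite luciferase luminescence after 15 min at room temperature gives Nrf2 activity.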
Mito fusion act – mitochondrial division inhibition or fusion activation | S. cerevisiae fusion-defective mutant growth rescue, CellTiterGlo 48 h | Potency, µM (series often up to 46.1 µM), for the others: at the top dose growth rescue (activation), actives largely listed as activators | actives 0.23% (n = 320,000) | AID 485298; further: potency means the concentration at half of the fitted maximal effect; % of control where 0% means no effect; nearly all actives have a fitted effect of over 45% in size
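Yeast fusion mutant, YPEG (non-fermentable carbon), compound, 48 h at 37C non-permissive; CellTiterGlo added, 10 min RT, luminescence read. Rescued growth = division inhibition.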
A549 viability – counter-screen for Nrf2 inhibitors: cytotoxicity in A549 cells; AID 504648; A549 ARE-Fluc cells, CellTiter-Fluor viability, 18-24 h; actives 0.16% (n = 390,000); Potency, µM (highest dose often 46 µM), for the others: top-dose activity change, negative = cytotoxicity, actives largely listed as inhibitors; further: potency means the concentration at half of the fitted maximal effect; on the % scale 0 is the no-effect control and ±100 the full control effect
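Cytotoxicity counterscreen: CellTiter-Fluor fluorescence was measured in A549 ARE_Fluc cells after 18-24 h of compound exposure in a concentration series. The subsequent BugLite luminescent read reports ARE-luciferase activity.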
An asterisk follows results filed as active; ? = inconclusive; . = not tested or not shown; [ ] = dose if it differs, or a comment. Hits are enriched below; roughly 2.3% of the tested compounds scored in any of these assays. Unless noted, the call rests on the fitted dose curve; in most records, active means well fitted curve in the direction sought with a large enough effect; inconclusive means small, poorly fitted or top-dose-only effect, or another doubt; inactive means no such curve, though single readings can be large; an effect the other way counts as inactive or inconclusive.

1) O=C(CN1CCN(c2ccccn2)CC1)Nc1ccc(OCc2ccccc2)cc1
2) CCCOc1ccc(C2C(C(=O)c3cc4ccccc4o3)=C(O)C(=O)N2c2cc(C)on2)cc1OC (stereo not drawn)
3) CCCOc1ccc(C2C(C(=O)c3cc4ccccc4o3)=C(O)C(=O)N2c2cc(C)on2)cc1 (stereo not drawn)
4) COc1ccc(OC)c(C2C(C(=O)c3cc4ccccc4o3)=C(O)C(=O)N2c2cc(C)on2)c1 (stereo not drawn)
5) COc1ccccc1C1C(C(=O)c2cc3ccccc3o2)=C(O)C(=O)N1c1cc(C)on1 (stereo not drawn)
6) CCc1ccc(NC(=O)CN2C(=O)C(=O)c3ccccc32)cc1
7) CC(=O)Nc1ccc(S(=O)(=O)Nc2cc(-c3cn4ccccc4n3)ccc2C)cc1
8) COC(=O)c1ccc(NC(=O)CN2C(=O)CC(c3ccccc3)Sc3ccccc32)cc1 (stereo not drawn)
9) COc1ccc(-n2ncc3c2ncn2nc(-c4ccc(OC)c(OC)c4)nc32)cc1
10) O=c1oc2ccccc2c(NC2CCCCC2)c1NS(=O)(=O)c1ccc(F)cc1
entry no.,1,2,3,4,5,6,7,8,9,10
Nrf2 activator,2.5%,-0.2%,-0.2%,3.0%,18.5%,7.0%,12.9%,-1.9%,0.2%,0.7%
miR-21 FLuc,6.4%,-5.6%,-9.2%,-13.5%,-7.5%,-3.6%,-38.1%,0.6%,-0.8%,4.1%
Nrf2 block,20.6µM*,?,?,?,-12.4%,-2.4%,12.9%,12.8%,6.5%,?
Mito fusion act,3.0%,-10.3%,7.1%,-2.8%,13.9%,.,.,.,.,-0.2%
A549 viability,-12.7%,-28.3%,20.6µM*,11.6µM*,-4.7%,-1.4%,-0.3%,-4.9%,-0.4%,-5.7%

Along the list, from the results shown:
Nos. 1–10 in Nrf2 activator read 2.5%, -0.2%, -0.2%, 3.0%, 18.5%, 7.0%, 12.9%, -1.9%, 0.2%, 0.7%
Nos. 1–10 in Nrf2 block read 20.6µM*, ?, ?, ?, -12.4%, -2.4%, 12.9%, 12.8%, 6.5%, ?
Nos. 1–10 in miR-21 FLuc read 6.4%, -5.6%, -9.2%, -13.5%, -7.5%, -3.6%, -38.1%, 0.6%, -0.8%, 4.1%

Next records follow.
11) CCc1ccc(S(=O)(=O)Nc2c(NC3CCCCC3)c3ccccc3oc2=O)cc1
12) COC1=CC(=O)c2c(ccc3ncnc(N)c23)C1=O
13) COC1=CC(=O)c2nc(Cl)ccc2C1=O
14) CCc1ccccc1NC(=O)C1CCN(C(=O)N2CC(C)Oc3ccc(Cl)cc32)CC1 (stereo not drawn)
15) O=C1OC(/C(=C\Nc2cc(Cl)ccc2O)[N+](=O)[O-])c2ccccc21 (stereo not drawn)
16) O=S(=O)(Cc1ccccc1)N1CCN(c2nc(-c3cccs3)nc3ccccc23)CC1
17) CCN(C(=O)CN1C(=O)S/C(=C\c2ccc(Cl)cc2)C1=O)C1CCS(=O)(=O)C1 (stereo not drawn)
18) CC(C(=O)N(C)C1CCS(=O)(=O)C1)N1C(=O)/C(=C/c2ccc(F)cc2)SC1=S (stereo not drawn)
19) CCN(C(=O)C(C)N1C(=O)/C(=C/c2ccco2)SC1=S)C1CCS(=O)(=O)C1 (stereo not drawn)
20) CCN(C(=O)CN1C(=O)S/C(=C\c2cccc(Cl)c2)C1=O)C1CCS(=O)(=O)C1 (stereo not drawn)
entry no.,11,12,13,14,15,16,17,18,19,20
Nrf2 activator,-0.5%,-3.4%,-4.5%,-0.5%,11.2µM*,.,-0.3%,11.7%,25.2%,11.2µM*
miR-21 FLuc,6.3%,.,.,-20.6%,9.4%,.,1.4%,8.6%,0.1%,7.1%
Nrf2 block,25.9µM*,4.61µM*,.,3.2%,?,?,-6.1%,?,?,-15.9%
Mito fusion act,-3.4%,.,.,.,-1.9%,.,13.7%,8.8%,4.4%,0.8%
A549 viability,-18.4%,7.31µM*,.,1.3%,-8.2%,-4.4%,-5.7%,-13.2%,14.6µM*,0.4%

21) O=S(=O)(c1ccccc1)N1CCN(c2nc(C3CC3)nc3ccccc23)CC1
22) CCOC(=O)C1=C(c2ccccc2)N=c2s/c(=C\c3ccc(O)cc3)c(=O)n2C1c1cccs1 (stereo not drawn)
23) Fc1ccccc1/C=C1\CCCC2=C1NC(=S)NC2c1ccccc1F (stereo not drawn)
24) Cc1cc(O)c(C(c2ccccc2)N2CCN(c3ccc(F)cc3)CC2)c(=O)n1Cc1ccco1 (stereo not drawn)
25) COCCN(Cc1cc2c(C)cc(C)cc2nc1Cl)C(=O)c1ccccc1F
26) CCCCNC(=O)CC1N=C2c3ccccc3N=C(SCC(=O)Nc3ccccc3OC)N2C1=O (stereo not drawn)
27) O=C(c1ccccc1[N+](=O)[O-])N(CCc1ccccc1)Cc1ccccc1
28) Cc1cccc(C(=O)N(CCc2ccccc2)Cc2ccccc2)c1[N+](=O)[O-]
29) COc1ccc(-n2c(-c3cccc(OC)c3)nc(=S)c3c2CCCC3)cc1
30) COc1ccc([C@]23Cc4cc(OC)c(OC)cc4C(O2)c2c(c4ccccc4oc2=O)O3)cc1
entry no.,21,22,23,24,25,26,27,28,29,30
Nrf2 activator,.,-1.5%,3.0%,-1.0%,-0.8%,0.1%,1.1%,0.1%,2.7%,.
miR-21 FLuc,.,16.0%,4.5%,0.4%,1.4%,-3.1%,-1.4%,5.6%,-5.9%,-18.6%[7.66 µM]
Nrf2 block,-10.0%,16.4µM*,8.2µM*,.,18.4µM*,18.4µM*,?,20.6µM*,25.9µM*,.
Mito fusion act,.,-14.9%,5.0%,.,-2.3%,-0.5%,1.0%,3.1%,-5.7%,-6.7%[9.22 µM]
A549 viability,4.8%,?,-13.4%,-3.3%,?,-22.7%,0.2%,?,-12.4%,.

31) Cc1ccc(N/C=C/C(=O)c2ccccc2)cc1Br
32) O=C(/C=C/Nc1cccc(O)c1)c1ccccc1
33) Cc1ccc(C(=O)/C=C/Nc2cccc(O)c2)cc1
34) O=C(/C=C/Nc1ccc(F)c(Cl)c1)c1ccccc1
35) O=C(/C=C/Nc1ccc(F)c(F)c1)c1ccc(Br)cc1
36) CSc1nc(Nc2ccc(C)cc2C)cc(-c2ccccc2)n1
37) O=C(Cn1ncc2ccsc2c1=O)N1CCN(c2ccccc2)CC1
38) COCCCN(Cc1ccco1)C(=O)c1cc2c(s1)-c1ccccc1OC2
39) Cc1ccc(CCNC(=O)c2cc3c(s2)-c2ccccc2OC3)cc1
40) O=C(NCCc1ccc(Cl)cc1)c1cc2c(s1)-c1ccccc1OC2
entry no.,31,32,33,34,35,36,37,38,39,40
Nrf2 activator,11.2µM*,14.1µM*,2.0%,11.2µM*,13.5%,6.8%,-1.2%,1.3%,0.0%,-1.5%
miR-21 FLuc,-62.1%,-6.1%,4.2%,-57.9%,-65.5%,5.5%,-5.2%,-9.1%,-20.2%,4.3%
Nrf2 block,?,-18.2%,?,?,?,-17.5%,?,9.2µM*,18.4µM*,?
Mito fusion act,-1.0%,-1.3%,4.3%,2.8%,12.6%,.,.,.,.,.
A549 viability,-11.9%,-17.0%,-16.6%,1.7%,1.6%,1.0%,3.5%,-10.4%,?,-0.1%

41) CC(=O)c1nn(-c2ccc(OC(F)(F)F)cc2)nc1Nc1ccc(C)cc1
42) CCOC(=O)c1sc(NC(=O)c2cc(-c3ccc(C)cc3)nc3ccccc23)c(C#N)c1C
43) COc1ccc(-c2cc(C(=O)Nc3sc4c(c3C#N)CCCC4)c3ccccc3n2)cc1
44) Cc1ccccc1-c1cc(C(=O)Nc2sc(C(=O)OC(C)C)c(C)c2C#N)c2ccccc2n1
45) O=C(Nc1nnc(-c2cccs2)o1)c1cc(-c2ccccc2)nc2ccccc12
entry no.,41,42,43,44,45
Nrf2 activator,0.3%,0.1%,2.8%,2.1%,-0.9%
miR-21 FLuc,9.4%,-1.0%,-10.8%,?,24.5%
Nrf2 block,5.1%,22.3%,-2.6%,2.59µM*,?
Mito fusion act,.,-1.1%,-3.4%,1.6%,12.6µM*
A549 viability,1.2%,1.4%,-6.7%,7.31µM*,-24.5%

Reprinted from the listing, two compounds:
42) CCOC(=O)c1sc(NC(=O)c2cc(-c3ccc(C)cc3)nc3ccccc23)c(C#N)c1C
43) COc1ccc(-c2cc(C(=O)Nc3sc4c(c3C#N)CCCC4)c3ccccc3n2)cc1
entry no.,42,43
Nrf2 activator,0.1%,2.8%
miR-21 FLuc,-1.0%,-10.8%
Nrf2 block,22.3%,-2.6%
Mito fusion act,-1.1%,-3.4%
A549 viability,1.4%,-6.7%
